Values quoted from earlier work in patent publication US8759367B2, “Compounds and methods for the prevention and treatment of cancer” (The Wistar Institute, priority 2010, dated 2014).

System: GLI1-driven reporter activity mediated by exogenous SHH (Shh-light2 cells)
Conditions: SHH-Light2 cells treated with recombinant SHH; Taipale, et al. (2000); cited from earlier work

CC1=C2C[C@H]3[C@@H](CC=C4C[C@@H](O)CC[C@@]43C)[C@@H]2CC[C@]12O[C@@H]1C[C@H](C)CN[C@H]1[C@H]2C [cyclopamine]
SHH-induced activation of GLI-dependant firefly luciferase: inhibited
